Reference: paper PMC4663524, “Studies on the Bioavailability of Deoxynivalenol (DON) and DON Sulfonate (DONS) 1, 2, and 3 in Pigs Fed with Sodium Sulfite-Treated DON-Contaminated Maize” (Toxins, 2015)

Test: Plasma toxicokinetics after a single intravenous bolus (DONiv, DONSiv)
Assay type: in vivo, pigs
Conditions: for AUC / half-life / clearance / Vd: iv, 50 ug/kg; for AUC: read-out: AUC, area under the curve; for clearance: read-out: Cl, plasma clearance; for Vd: read-out: Vd(area), apparent volume of distribution
Procedure: The experiment was designed as a kinetic study. The treatments included the administration of a single bolus, either po with feed serving as vehicle, or IV with standards dissolved in physiological saline (DON, DONS). Due to the instability of DONS 2 and 3 upon evaporation to dryness, the standards of the three DONS were dissolved in water acidified with 2% formic acid. The po-treatments included untreated DON-contaminated maize meal (NDON); DON-contaminated maize meal to which 5 g Na2SO3 was added dry (SDON); uncontaminated maize meal to which a mixture of DONS was added (DONSpo); DON-contaminated maize meal (MM); and kernels (MK) wet preserved with Na2SO3 for 37 (MM37, MK37) and 79 (MM79, MK79) days. […] Differences in blood profiles of DON, DONS 1, DONS 2, and DONS 3, and in related toxicokinetics, including bioavailability, would therefore enable conclusions to be drawn on the stability of DONS in vivo. In order to allow estimation of bioavailability it was necessary to obtain the plasma kinetics after IV administration of DON and DONS (DONiv, DONSiv, Table 7).
A total of 16 castrated male pigs, crossbred German Landrace × Pietrain, were used for these kinetic experiments. After an adaption phase to the balance cages, eight animals underwent surgery per trial. Animals were equipped with two permanent intravenous catheters in the external vena jugularis for serial blood sampling. After surgery the animals were allowed to recover for one day. On test day, zero blood samples had to be collected from pigs before exposure. Zero blood samples served as reference values to which the data after oral or intravenous bolus related. Serial blood samples (10 mL) were drawn prior to feeding and after 15, 30, 60 and 90 min and then after two, three, four, six, eight, 10, 12, and 24 h for pigs receiving compounds by oral administration. For pigs dosed intravenously, shorter time intervals were chosen at the beginning: five, 10, 15, 20, 30, 45 min and then following the same intervals as for oral exposure. For a clear classification in result Table 1, Table 2, Table 3, Table 4, Table 5 and Table 6, we differentiated between IV- (intravenous bolus) and O- (oral bolus) animals. Due to repeated use of individuals it was numbered continuously.
Two different injection solutions were prepared for IV administration. Standard DON (Sigma D-0156, Deisenhofen, Germany), present in solid form, was dissolved in physiological saline to prepare a 250 µg/mL stock solution. After weighing, an individual amount was drawn up into syringes with a dose of 50 µg/kg BW. The concentrations of DONS 1, 2, and 3 in DONS standard solution were 3240, 1720, and 7300 µg/mL, respectively. The production of DON sulfonates standard mixture was performed and described by Schwartz et al.. Thereafter, the standard was mixed with physiological saline to prepare a 250 µg/mL DONS stock solution. The further handling was similar to DON.
For quantitative determination of DONS 1, 2, and 3 in plasma, an HPLC-MS/MS analysis was conducted on an Agilent 1200 (Agilent Technologies, Böblingen, Germany) series HPLC system coupled to a 4000 QTrap mass spectrometer (AB Sciex, Foster City, CA, USA). Compounds were separated in gradient elution on a Phenomenex Kinetex 5u C-18 column (150 × 2.1 mm, 5 µm, 100 A) at 30 °C using water and methanol, both containing 0.1% formic acid (v/v), as mobile phases A and B. The flow rate was 300 µL/min, the injection volume 5 µL and the total run time was 17 min. The retention times of DONS 1, 2, and 3 were 2.31, 4.71, and 5.88 min, respectively. Tandem mass spectrometric detection was carried out in negative ion mode after electrospray ionization at 600 °C (ion spray voltage: −4500 V). The method was validated in-house for all analytes based on the guidelines of the FDA and European community. Calibration graphs (0.3–480 ng/mL) were prepared and good linearity was achieved (r ≥ 0.99). […]

[1] = DON in plasma after DONSiv 50 µg/kg BW, individual pigs IV6-11
[2] = male, crossbred German Landrace × Pietrain, pig, plasma, DON, IV 50 µg DON/kg BW, individual pigs IV 1-5
[3] = male, crossbred German Landrace × Pietrain, pig, plasma, DON, IV 50 µg DON/kg BW, mean, n=5

CC1=C[C@H]2O[C@@H]3[C@H](O)C[C@](C)([C@@]2(CO)[C@H](O)C1=O)[C@]31CO1 [DON, deoxynivalenol]
AUC, area under the curve [1]: 40.14 ng·h/mL and 42.16 ng·h/mL and 55.11 ng·h/mL and 40.09 ng·h/mL and 35.40 ng·h/mL | t1/2α, half-life of distribution [1]: 0.14 h (2×) and 0.22 h and 0.40 h and 0.17 h and 0.31 h | t1/2β, half-life of elimination [1]: 2.16 h and 3.14 h and 2.02 h and 4.11 h and 2.43 h and 2.57 h | AUC, area under the curve (DON in plasma, IV 50 µg DON/kg BW, 0-24 h, individual pigs IV 1-5, listed as DONiv): 227.8 ng·h/mL and 212.0 ng·h/mL and 206.3 ng·h/mL and 250.0 ng·h/mL | Vd(area), apparent volume of distribution (DON, IV 50 µg DON/kg BW, individual pigs IV 1-5): 0.67 L/kg and 0.68 L/kg and 0.72 L/kg and 0.53 L/kg | C0 (male, crossbred German Landrace × Pietrain, pig, plasma, 50 µg/kg BW, IV 50 µg DON/kg BW, range over pigs, present experiment, read-out: initial concentration A + B of DON at t = 0): 121 to 708 ng/mL | AUC (male, crossbred German Landrace × Pietrain, pig, plasma, DON in plasma after DONSiv 50 µg/kg BW, individual pigs IV6-11): 28.9 ng·h/mL | AUC (male, crossbred German Landrace × Pietrain, pig, plasma, DON in plasma after DONSiv 50 µg/kg BW, mean, n=6): 40.3 ng·h/mL | half-life (male, crossbred German Landrace × Pietrain, pig, plasma, DON in plasma after DONSiv 50 µg/kg BW, mean, n=6, read-out: t1/2α, half-life of distribution (converted)): 13.8 min | half-life (male, crossbred German Landrace × Pietrain, pig, plasma, DON in plasma after DONSiv 50 µg/kg BW, mean, n=6, read-out: t1/2β, half-life of elimination (converted)): 164 min | AUC (male, crossbred German Landrace × Pietrain, pig, plasma, DON in plasma, IV 50 µg DON/kg BW, 0-24 h, individual pigs IV 1-5): 264 ng·h/mL | AUC (male, crossbred German Landrace × Pietrain, pig, plasma, DON in plasma, IV 50 µg DON/kg BW, 0-24 h, mean, n=5): 232 ng·h/mL | half-life (male, crossbred German Landrace × Pietrain, pig, plasma, DON in plasma, IV 50 µg DON/kg BW, individual pigs IV 1-5, read-out: t1/2β, half-life of elimination (converted)): 115 min | half-life (male, crossbred German Landrace × Pietrain, pig, plasma, DON in plasma, IV 50 µg DON/kg BW, mean, n=5, read-out: t1/2β, half-life of elimination (converted)): 119 min | clearance [2]: 3.15 mL/min/kg | Vd [2]: 0.52 L/kg | clearance [3]: 3.61 mL/min/kg | Vd [3]: 0.61 L/kg

Several values for one entry are separate records, joined by “and”; a condition that tells them apart may be missing. Identical values can stand only once. Like-named read-outs stand apart in the source and are kept apart here.
